The inhibition is the change of the read-out against control, counted positive when it falls.

Amino acid sequences for entries named in this document (tags omitted).
UniProt P63279, whole entry: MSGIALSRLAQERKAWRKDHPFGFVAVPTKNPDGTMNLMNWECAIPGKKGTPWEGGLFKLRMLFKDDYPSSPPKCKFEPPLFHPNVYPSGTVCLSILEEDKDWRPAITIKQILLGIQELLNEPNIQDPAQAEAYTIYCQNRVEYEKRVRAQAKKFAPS

Only a part is listed here, and it is no random draw. Some of these compounds have results that are not shown, active ones among them. Active and inactive are the calls of the source. Rule as the data show it: active = inhibition above about 50% (passing the limit was not always enough); inconclusive = no clear call, values can overlap the other calls.

In the assay the target is SUMO-conjugating enzyme UBC9 (Homo sapiens) (UniProt P63279). The experiment in a line: blockers of SAE1/SAE2–UBC9 SUMO transfer – biochemical, HTRF, uHTS, primary screen (AID 2006). The following applies: HTRF SUMOylation assay, SAE1/SAE2 + UBC9, in vitro; at 35 µM; stronger effect = higher value.
In the case of `COc1cc(C(=O)NCC2(N(C)C)CCCCC2)c([N+](=O)[O-])cc1OC`, the inhibition is inactive: 2.5%.
On to `CN(C)C1(CNC(=O)c2ccc(Br)cc2)CCCCC1`, for which the inhibition is inactive: 20.1%.
Next, `O=C(NCC1(N2CCCCC2)CCCCC1)c1cccc(Cl)c1`: inactive: -4%.
Take `COc1ccc(Cl)cc1C(=O)NCC1(N(C)C)CCCCC1`: the inhibition was inactive: 6.9%.
As for `COc1cccc(C(=O)NCC2(N3CCCCC3)CCCCC2)c1`, the inhibition was inactive: 15.9%.
Next, `O=C(OC1CN2CCC1CC2)C(CO)(c1ccccc1)c1ccccc1` (centres undefined): inactive: -8%; `CC(C)Oc1ccc(C(=O)NCC2(N(C)C)CCCCC2)cc1`: inactive: 21.7%.
Consider `CN(C)c1cccc(C(=O)NCC2(N(C)C)CCCCC2)c1`, for which the inhibition was inactive: 17.1%.
On to `COc1ccc(Br)c(C(=O)NCC2(N3CCCCC3)CCCCC2)c1`, for which the inhibition is inactive: -1.7%.
For the compound `CN1[C@@H]2CC[C@H]1CC(OC(=O)C(O)(c1ccccc1)c1ccccc1)C2` (some centres undefined), the inhibition was inactive: -21%.
As for `O=C(NCC1(N2CCCCC2)CCCCC1)c1cc([N+](=O)[O-])ccc1Cl`, the inhibition is inactive: -2.2%.
Regarding `Cc1ccc(C(=O)NCC2(N3CCCCC3)CCCCC2)cc1`, the inhibition was inactive: 0.3%.
As to `COc1cc(SC)ccc1C(=O)NCC1(N(C)C)CCCCC1`, the inhibition is inactive: 19.4%.
On to `CCN(CC)CC(C)C(C)OC(=O)C(O)(c1ccccc1)c1ccccc1` (centres undefined), for which the inhibition was inactive: 16.7%.
On to `CC(C)N1C(=O)CC2(CCN(CCOC(=O)C(O)(c3ccccc3)c3ccccc3)CC2)C1=O`, for which the inhibition was inactive: -19.5%.
As for `CN(C)c1ccc(C(=O)NCC2(N(C)C)CCCCC2)cc1`, the inhibition was inactive: 8.5%.
Next, `CN(C)C1CCCC1OC(=O)C(O)(c1ccccc1)c1ccccc1` (centres undefined): inactive: -5.8%; `Cc1ccccc1C(=O)NCC1(N2CCCCC2)CCCCC1`: inactive: 12%.
Next, `COc1ccc(C(=O)NCC2(N(C)C)CCCCC2)cc1`: inactive: 18.5%; `O=C(NCC1(N2CCCCC2)CCCCC1)c1cccc(Br)c1`: inactive: 1.1%.
As to `CCN1CCCC(OC(=O)C2(O)c3ccccc3C=Cc3ccccc32)C1` (centres undefined), the inhibition is inactive: 28.8%.
`Cc1cc(C(=O)NCC2(N3CCCCC3)CCCCC2)ccc1[N+](=O)[O-]`: the inhibition is inactive: 12.3%.
As for `O=C(NCC1(N2CCCCC2)CCCCC1)c1cc(F)c(F)cc1Cl`, the inhibition was inactive: -7.8%.
On to `C=CCN1CCN(CCOC(=O)C(O)(c2ccccc2)c2ccccc2)CC1`, for which the inhibition was inactive: 3.5%.

The record behind these values is PubChem BioAssay AID2006 (Sanford-Burnham Center for Chemical Genomics, 2009).
